Data on one substance can be found in PMC11012829 (International Journal of Nanomedicine, 2024).

The data set is classed as in vivo, male Sprague-Dawley rats. The note with it: oral, rats.

On to liquiritin apioside, for which the “mean AUC0-t increased in the N-XBSD group compared to the free drugs” value (N-XBSD vs free drugs) was determined as 79.17%. Also, the “mean AUC0-t in the N-XBSD group versus free drugs group” value (p<0.05) is given as “significantly higher”. The “bioavailability after N-XBSD administration compared to the free drugs” value (same administration concentration) was “significantly higher”.
